Assay results from article doi:10.1101/2024.09.30.615802 (bioRxiv, 2024).

Molecular target: major birch allergen Bet v1 (Betula pendula, isoform Bet v 1-A (Bet …, UniProt P15494))
Assay: SPR

binding result | Binder
binds | REGN5713 (antibody format) (antibody, V domains shown) VH: QVQLQESGPGLVKPSETLSLTCSVSGGSITNYFWTWIRQSPGKGLEWIGYIYYSGGTNYNPSLKSRVTISIDTSKNQFSLNMNSVTAADTAVYYCAGSYYYGVDVWGQGTTVTVSS VL: EIVLTQSPATLSLSPGERATLSCRASQSIKSFLAWYRQKPGQAPRLLIYDASNRPTGIPARFSGSGSGTDFTLTINSLESEDFAVYFCQQRNNWPFTFGPGTKVDIK
binds | REGN5714 (Fab format) (Fab, V domains shown) VH: EVQLVESGGDLVQPGGSLRLSCAASGFTFSSYEMNWVRQAPGKGLEWVSFISDSSSNIYYADSVKGRFTISRDNAKKSLYLQMTSLRAEDTAVYYCAREAIGSTSFDNWGQGTLVTVSS VL: EIVMTQSPATLSVSPGERATLSCRASQSVSSSLAWYQQKPGQAPRRLIYSASTRATGIPARFSGSGSGTEFTLTISSLQSEDFAIYYCHQYNNWPLTFGGGTKVEIK
